Measured values: ChEMBL document CHEMBL1137302 (J Med Chem, 2006)

System: D(2) dopamine receptor (Mustela putorius furo)
Test: Agonist activity at ferret D2 receptor in HEK293 cells coexpressing Galphaqo5 by FLIPR relative to dopamine upto 10 uM

Question: With `Cc1cccc(NC(=O)CN2CCC(c3cccc[n+]3[O-])CC2)c1` as the compound, how does the Activity read?
Answer: The Activity was “inactive”.

Activity calls are given as the source filed them. The calls are words filed in the database; no cut-off is given here.
